Hit rate of the full screen: of about 360,000 compounds, about 740 (0.21%) were called active. Listed are the inconclusive results; actives and inactives stand elsewhere. Calls follow the shape of the dose curve; as a rule, active = well fitted inhibition curve with a large enough effect; inconclusive = small, poorly fitted or top-dose-only effect; inactive = no such curve, though single readings can be large or run the other way.
test system: Plasmodium falciparum AMA1 (3D7) - RON2 peptide interaction; assay: qHTS for Inhibitors of AMA1-RON; Towards Development of Antimalarial Drug Lead: Primary Screen; details: AlphaScreen AMA1-biotinylated RON2 peptide binding; also: nearly all actives have a fitted effect of over 45% in size
Potency is read from the fitted curve at half-maximal effect.

Structure (SMILES)	Potency
O=P(Nc1ccccn1)(c1ccc(Br)cc1)c1ccc(Br)cc1	inconclusive: 7.08 µM
O=[N+]([O-])c1cc([N+](=O)[O-])c(CCNc2ccccc2)c([N+](=O)[O-])c1	inconclusive: 39.8 µM
Cc1ccc(NCCc2c([N+](=O)[O-])cc([N+](=O)[O-])cc2[N+](=O)[O-])cc1	inconclusive: 31.6 µM
CC1(CBr)Cn2c(nc3ccccc3c2=O)S1 (stereo not given)	inconclusive: 31.6 µM
O=C(/C=C/c1ccccc1)OC1CN2CCC1CC2 (stereo not given)	inconclusive: 2.82 µM
